Test [1] relates to central α2-adrenoceptors. The test is described as follows: In vivo antagonism of clonidine-induced mydriasis. The arrangement: species or system rat (Sprague-Dawley). To be noted: for Antagonism of Clonidine Induced Mydriasis (ED2X): anesthetized rats, pretreated 5 minutes before i.v. clonidine, dose causing doubling of clonidine ED50, N=4/group. The protocol: Administration of clonidine to rat produces mydriasis by an α2 -adrenergic mechanism in the central nervous system as reported by Koss et al., Naunyl-Schmiedeberg's Arch. […] Ophthal. […] Antagonism of the mydriatic action of clonidine was used as an in vivo test to examine the ability of the compounds to penetrate the central nervous system and antagonize α2 -adrenoceptors in the rat.
Adult male Sprague-Dawley rats (250-450 g) were anesthetized with chloral hydrate (120-160 mg/kg i.p.), and a femoral vein was cannulated for drug administration. Body temperature was maintained at 37° C.±0.5. The eye was illuminated using a light with green filters to provide added contrast to aid in visualization of the iris. Pupil diameter was measured using a dissecting microscope containing an ocular micrometer with a resolution of 0.1 mm.
Five minutes was allowed to elapse between successive doses of clonidine, and pupil diameter was determined immediately prior to the injection of the next dose of clonidine. The dose of clonidine required to cause 50% of the maximum increase in diameter of the pupil was determined for each rat, using logarithmic linear regression analysis. […] The potency of antagonists was expressed as ED2X values, i.e. the calculated dose of antagonist required to cause a doubling in the ED50 value for clonidine.

For test [2], the target named is T1, peripheral α2-adrenoceptors (Rattus norvegicus, UniProt P22909).
T1 construct: isolated, field-stimulated rat vas deferens is utilized as an in vitro model; from tissue; host or cells: rat vas deferens (isolated, field-stimulated)
T1 sequence (P22909 1-465): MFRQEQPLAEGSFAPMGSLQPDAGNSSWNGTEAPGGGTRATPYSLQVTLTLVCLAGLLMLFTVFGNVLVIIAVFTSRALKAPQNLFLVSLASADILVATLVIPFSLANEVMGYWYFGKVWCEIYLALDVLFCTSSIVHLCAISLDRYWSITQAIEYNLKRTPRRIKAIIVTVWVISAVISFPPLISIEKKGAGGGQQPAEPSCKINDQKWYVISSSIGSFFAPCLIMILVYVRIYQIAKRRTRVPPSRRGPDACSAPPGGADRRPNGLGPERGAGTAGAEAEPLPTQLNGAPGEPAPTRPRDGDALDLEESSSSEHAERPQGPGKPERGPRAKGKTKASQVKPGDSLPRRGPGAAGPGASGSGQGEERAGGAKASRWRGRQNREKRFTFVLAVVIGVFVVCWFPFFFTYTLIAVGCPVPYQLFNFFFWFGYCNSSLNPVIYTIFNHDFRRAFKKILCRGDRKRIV
The test is described as follows: Peripheral versus central α2-adrenoceptor selectivity, vas deferens compared with mydriasis data. The following applies: relative to yohimbine.

Test [3] concerns the target T1, peripheral α2-adrenoceptors. The test is described as follows: In vitro field-stimulated rat vas deferens test: antagonism of clonidine (Schild analysis, pA2). The class given is cell-based. The text has this: In the test, isolated, field-stimulated rat vas deferens is utilized as an in vitro model to determine the potency and selectivity of compounds toward the various α-adrenoceptor subtypes. Selective α2 -adrenoceptor agonists such as clonidine reduce the magnitude of neurogenic contractions in the peripheral smooth muscle by reducing the stimulated release of norepinephine through the activation of presynaptic α2 -adrenoceptors on the noradrenergic nerve terminals.
The vas deferens from rats weighing 250-350 grams were freed of connective and fatty tissue and suspended between two platinum electrodes in an organ bath under 0.5 gram tension. The organ bath contained Tyrode's solution which was bubbled with 5% CO2 and 95% O2 and stimulated with square wave pulses at 0.1 Hz, 0.3 msec in duration and supramaximal voltage (30-50 V). Contractile responses were recorded. α2 -Agonist drug (clonidine) was added cumulatively to the bath and EC50 values determined by regression analysis. […] Computation of the pA2 value was performed using the formula: pA2 =pAx +log (x-1), where pAx is the negative logarithm of the molar concentration of antagonist and x is the dose ratio of EC50 values for the agonist before and after addition of the antagonist.

With `COC(=O)[C@@H]1[C@H]2C[C@H]3c4[nH]c5ccccc5c4CCN3C[C@@H]2CC[C@@H]1O` [Yohimbine, reference compound], the “Antagonism of Clonidine Induced Mydriasis (ED2X)” value in test [1] is on record as 0.136 mg/kg i.v.

For `CS(=O)(=O)NCCN1C(=O)NC[C@]12CCN1CCc3c(oc4ccccc34)[C@@H]1C2` [Arylquinolizine Compound A, (2R,12bS)-3'-(2-methanesulfonamidoethyl)-spiro-[1,3,4,6,7,12b-hexahydrobenzo[b]furo[2,3-a]quinolizin]-2,4'-imidazolidin-2'-one], in test [1], the “Antagonism of Clonidine Induced Mydriasis (ED2X)” value is 18.0 mg/kg i.v. For the same molecule, the “less potent in eliciting a response mediated by central α2-adrenoceptors (mydriasis data)” value in test [1] (relative to yohimbine) is 132 fold. The “more selective for the periphery than yohimbine” value in test [2] is reported as “about 900 times”. The molecule also had an antagonist dissociation constant (Kb) in test [3] (isolated field-stimulated rat vas deferens, agonist clonidine, antagonist at least 20 minutes contact) of 3.02 nM. In addition, in test [3] (vas deferens data, relative to yohimbine), the “higher affinity for α2-adrenoceptors than yohimbine” value is recorded as “seven”.

As usually defined, the Kb is the equilibrium dissociation constant of an antagonist, usually derived from a functional assay.

The values above are taken from patent US4916223A, “Substituted hexahydroarylquinolizines” (Merck & Co., Inc., priority 1989, dated 1990).
